Assay results reported in paper PMC7640899.

Tests used:
[1] = target: H3(1–21)K4me2 peptide (human) (UniProt Q71DI3)
[2] = target: full-length dimethylated histone H3K4me2 (human) (UniProt Q71DI3)
[3] = target: unmethylated mononucleosome (wild-type H3, human histones, 147 bp Widom 601 DNA) (human) (UniProt Q71DI3); test: MST

- KM of demethylation, continuous horseradish peroxidase-coupled assay [1]: 15.1 µM
- KM of demethylation, continuous horseradish peroxidase-coupled assay [2]: 3.2 µM
- Kd [3]: 6.1 µM
Substance: full-length lysine specific demethylase 1 (LSD1) (from UniProt O60341 1-852) (enzyme)
